Molecular target: T1, full-length human APLNR (amino acids 1-380 of accession number NP-005152.1) (human, UniProt P35414 1-380)
T1 sequence (looked up): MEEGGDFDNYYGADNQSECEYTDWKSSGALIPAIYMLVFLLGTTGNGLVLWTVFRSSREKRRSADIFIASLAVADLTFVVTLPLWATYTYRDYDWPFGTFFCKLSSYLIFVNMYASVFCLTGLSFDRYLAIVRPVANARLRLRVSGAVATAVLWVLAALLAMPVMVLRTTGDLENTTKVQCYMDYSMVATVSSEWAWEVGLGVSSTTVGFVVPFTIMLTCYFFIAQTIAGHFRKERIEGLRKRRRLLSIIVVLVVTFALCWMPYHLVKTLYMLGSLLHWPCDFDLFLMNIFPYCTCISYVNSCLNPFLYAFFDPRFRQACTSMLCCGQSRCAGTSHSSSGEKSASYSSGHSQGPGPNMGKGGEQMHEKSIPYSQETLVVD
Assay: cell-based or functional assay

EC50 (M), CRE assay (cAMP reporter) in HEK293/CRE-luc/hAPLNR cells: 1.03e-10 M
Binder: QRPRLSHKGPMPA [Apelin-F13A]

From patent publication US20140275489A1 (Regeneron, published 2014)
